The values below are quoted from earlier work in US9757385B2, “Method of treating leukemia using pharmaceutical formulation containing thienotriazolodiazepine compounds” (ONCOETHIX GmbH, priority 2013, dated 2017).

The target in the data set is mTOR (Homo sapiens, UniProt P42345). Particulars: cited from earlier work.

Take GDC-0349: the Ki is 3.8 nM.
